Laboratory results: ChEMBL document CHEMBL2016494, “Ligand-based design of a potent and selective inhibitor of cytochrome P450 2C19” (J Med Chem, 2012)

By UniProt entry, the sequences of proteins in these tests, tags left out. Where a name states a change or a piece, a line headed by the entry shows the natural chain unless it says otherwise.
UniProt P20813: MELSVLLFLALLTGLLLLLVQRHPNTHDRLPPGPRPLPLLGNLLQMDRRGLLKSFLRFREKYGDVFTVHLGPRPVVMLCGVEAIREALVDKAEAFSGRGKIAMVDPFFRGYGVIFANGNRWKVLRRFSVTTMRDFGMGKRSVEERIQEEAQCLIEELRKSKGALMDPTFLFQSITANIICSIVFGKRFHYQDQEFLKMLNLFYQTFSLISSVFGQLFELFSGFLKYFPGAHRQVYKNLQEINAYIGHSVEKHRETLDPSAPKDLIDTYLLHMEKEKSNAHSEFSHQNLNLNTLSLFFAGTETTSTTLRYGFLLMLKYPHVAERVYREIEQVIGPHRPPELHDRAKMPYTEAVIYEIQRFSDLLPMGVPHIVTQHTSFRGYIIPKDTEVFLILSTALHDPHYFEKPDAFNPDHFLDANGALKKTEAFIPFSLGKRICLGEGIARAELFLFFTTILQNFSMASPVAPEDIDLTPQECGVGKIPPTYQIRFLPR
UniProt P10632, whole entry: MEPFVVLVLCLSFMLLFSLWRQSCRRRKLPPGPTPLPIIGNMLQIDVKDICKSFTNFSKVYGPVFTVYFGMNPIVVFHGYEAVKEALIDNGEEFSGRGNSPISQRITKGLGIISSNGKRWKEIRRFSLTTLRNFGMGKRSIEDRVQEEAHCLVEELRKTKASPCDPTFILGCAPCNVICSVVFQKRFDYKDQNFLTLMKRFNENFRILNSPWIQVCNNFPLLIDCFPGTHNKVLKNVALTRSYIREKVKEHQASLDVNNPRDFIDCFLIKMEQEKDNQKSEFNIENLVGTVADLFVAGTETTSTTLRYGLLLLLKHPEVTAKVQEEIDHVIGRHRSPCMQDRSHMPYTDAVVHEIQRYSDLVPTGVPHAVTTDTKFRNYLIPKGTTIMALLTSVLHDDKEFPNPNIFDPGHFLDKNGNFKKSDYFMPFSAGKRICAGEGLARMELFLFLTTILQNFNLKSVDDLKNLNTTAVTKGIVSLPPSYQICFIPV

How the values were obtained:
Cytochrome P450 2B6 = Cytochrome P450 2B6 (Homo sapiens, UniProt P20813); assay: Inhibition of CYP2B6 in human liver microsomes using bupropion as substrate preincubated for 5 mins by LC-MS/MS analysis
Cytochrome P450 2C8 = Cytochrome P450 2C8 (Homo sapiens, UniProt P10632); assay: Inhibition of CYP2C8 in human liver microsomes using paclitaxel as substrate preincubated for 5 mins by LC-MS/MS analysis

Which IC50 (Cytochrome P450 2B6) does the source give for `CCCSc1nc2ccc(OC)cc2[nH]1` here?
Its IC50 is 50 µM.

For `COc1ccc2[nH]c(SCCCC(=O)O)nc2c1`, which IC50 (Cytochrome P450 2C8) is on record?
Its IC50 is 50 µM.

For `COc1ccc2nc(SCc3ccc(C(=O)O)cc3)[nH]c2c1`, which IC50 (Cytochrome P450 2C8) is on record?
Its IC50 is 50 µM.
